This data set in a line: Serum stability test. Conditions: diluted human serum (25%), 37 °C, 50 µM peptide, reversed-phase HPLC C18, 214 nm. Type of data set: in vitro ADME.

Consider one compound from article PMC4174996 (Journal of Medicinal Chemistry, 2014).

For `CC[C@H](C)[C@H](NC(=O)[C@@H](NC(=O)[C@@H]1CCCN1C(=O)[C@H](Cc1c[nH]cn1)NC(=O)[C@@H]1CCCN1C(=O)CN)C(C)C)C(=O)N[C@H](C(=O)N[C@H](C(=O)N[C@H](C(=O)NCC(=O)N1CCC[C@H]1C(=O)N[C@@H](Cc1c[nH]cn1)C(=O)N[C@@H](CCC(=O)O)C(=O)N[C@@H](CCC(=O)O)C(N)=O)[C@@H](C)O)[C@@H](C)CC)C(C)C` [VIVIT], the “time to complete degradation in serum” value is on record as 6 h.
